Source: PubChem BioAssay AID463173 (ICCB-Longwood Screening Facility, Harvard Medical School, 2010)
The list shows a part of the results, in another mix than the full data. Some tests of the compounds listed are not included; inactive here does not mean inactive elsewhere. Calls of active or inactive are those of the source. Cut-off read from the data, not from the text of the source: active = survival mostly below about 52% (no sharp cut-off); inactive = mostly above about 56%.

test system: DeltatarO mutant; assay: S. aureus survival, RN4220 and DeltatarO strains – OD600, teichoic acid synthesis inhibitors, primary screen (AID 463173); conditions: S. aureus RN4220 wild type/DeltatarO growth, OD600, 18 h, hits give low values, screened at 18.75 µg/mL (by protocol)

SMILES | survival
Cc1cccc(C(=O)NCC2(N(C)C)CCCCC2)c1 | inactive: 85%
COc1cc(C(=O)NCC2(N(C)C)CCCCC2)cc(OC)c1OC | inactive: 88%
CN1C2CCC1CC(OC(=O)C(O)(c1ccccc1)c1ccccc1)C2 (configuration not stated) | inactive: 78%
CC(C)Oc1ccc(C(=O)NCC2(N(C)C)CCCCC2)cc1 | inactive: 86%
COc1cccc(C(=O)NCC2(N3CCOCC3)CCCCC2)c1 | inactive: 96%
CC(C)COc1ccc(C(=O)NCC2(N(C)C)CCCCC2)cc1 | inactive: 96%
COc1ccc(C(=O)NCC2(N(C)C)CCCCC2)cc1Cl | inactive: 88%
CCOc1cccc(C(=O)NCC2(N(C)C)CCCCC2)c1 | inactive: 98%
CN(C)C1(CNC(=O)c2ccccc2[N+](=O)[O-])CCCCC1 | inactive: 97%
CCCCOc1ccccc1C(=O)NCC1(N(C)C)CCCCC1 | inactive: 87%
CN(C)C1(CNC(=O)c2cccc(Cl)c2)CCCCC1 | inactive: 93%
CN(C)C1(CNC(=O)c2ccccc2F)CCCCC1 | inactive: 96%
